In paper PMC11096368, “Transcriptomic signature, bioactivity and safety of a non-hepatotoxic analgesic generating AM404 in the midbrain PAG region” (Scientific Reports, 2024):

Test system: FAAH, CORO2A, and RPL7L1 expression
Assay: Single-cell RNA sequencing of midbrain PAG in the CFA model
Assay type: in vivo
Conditions: 100 mg/kg, 1 h, CFA rats
Method: Subsequently, we endeavored to explore the single-cell transcriptome of the eVF rat mid-brain PAG region to further define the mechanisms of action (MOA) of chronic inflammatory pain and, ultimately, SRP-001- and ApAP-mediated pain modulation. Left hind paws of Sprague Dawley rats were injected with 150 µl of 50% complete Freund’s adjuvant (CFA), freshly diluted with sterile saline on the day of administration, to induce conspicuous long-standing inflammatory pain in the rats’ hind paws, along with mechanical hyperalgesia tested using eVF.to induce local inflammation and a chronic pain state. We dosed the rats with ApAP or SRP-001 (100 mg/kg), and after 1 h, they were euthanized to dissect the PAG from flash-frozen brains for 10xGenomics single-nuclei RNA library preparation (Fig. 4a).
For cell nuclei isolation from the midbrain PAG, they were flash-frozen, dissected (by a cryotome), minced into small pieces, homogenized, filtered through 70 μ strainer and centrifuged. ReadiDrop 7-AAD cell viability dye (Bio-Rad) added, and flow sorted the live (7-AAD positive) nuclei in a BioRad Cell Sorter S3e using purity mode. Nuclei were counted using Nexcelom automated Cellometer with acridine orange/propidium iodide (AOPI) stain, and the Nuclei Stock Concentration used so that 10,000 nuclei could be targeted for each sample. […]

CC(=O)Nc1ccc(O)cc1 [ApAP, acetaminophen, reference compound]
Expression of FAAH, CORO2A, and RPL7L1 in PAG (scRNAseq): Downregulation
